Target: HA-DOPr (HA-tagged δ opioid receptor) (Homo sapiens, UniProt P41143)
Assay: saturation radioligand binding, HEK293 membranes
Settings: labelled compound; 0.06–30 nM; pH 7.4; room temperature

By UniProt entry, the sequences of proteins in these tests, tags left out. Where a name states a change or a piece, a line headed by the entry shows the natural chain unless it says otherwise.
UniProt P41143: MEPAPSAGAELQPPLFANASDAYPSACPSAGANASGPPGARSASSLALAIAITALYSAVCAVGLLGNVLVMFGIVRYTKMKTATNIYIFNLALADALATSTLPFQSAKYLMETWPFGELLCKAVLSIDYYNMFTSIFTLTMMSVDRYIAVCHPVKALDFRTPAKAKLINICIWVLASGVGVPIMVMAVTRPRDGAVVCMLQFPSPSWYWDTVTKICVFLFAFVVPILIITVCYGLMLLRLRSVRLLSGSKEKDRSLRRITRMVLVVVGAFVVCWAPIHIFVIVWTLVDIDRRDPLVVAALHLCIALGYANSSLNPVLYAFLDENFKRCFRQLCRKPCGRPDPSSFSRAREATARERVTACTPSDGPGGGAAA

[^3H]-Diprenorphine
saturation radioligand binding, HEK293 membranes: Receptor expression levels were determined by saturation binding assays with [^3H]-diprenorphine

Reference: paper PMC6978697 (The Journal of Pharmacology and Experimental Therapeutics, 2020)
